For the data set the following is noted: host-guest peptide, (Gly-Pro-Hyp)8 host; c=1 mg/ml in phosphate-buffered saline, pH 7.0, heating rate 0.1° C./minute. On the procedure: The propensity measurements for all 20 amino acid residues in the Xaa1 position in a Gly-Xaa1-Hyp context and all 20 amino acid residues in the Xaa2 position in a Gly-Pro-Xaa2 context were determined by measuring thermal stability of host-guest peptides (Persikov, et al. (2000) supra).
The Tm values of all host-guest peptides were measured under a set of standard conditions, with c=1 mg/ml in phosphate-buffered saline, pH 7.0, and with a heating rate average of 0.1° C./minute (Persikov, et al. (2004) supra).

As for Gly-Gly-Leu, the “experimentally observed Tm of Gly-Xaa1-Xaa2 tripeptide unit in a triple helix” value is 25.3 °C.

The values are drawn from patent US8280710B2, “Method for determining thermal stability of collagen or collagen-like peptide” (University of Medicine and Dentistry of New Jersey, priority 2005, dated 2012).
